Laboratory results as given in paper PMC9321231.

Target: T1, human neutrophil elastase (HNE) (Homo sapiens, UniProt P08246)
T1 sequence (P08246 30-267): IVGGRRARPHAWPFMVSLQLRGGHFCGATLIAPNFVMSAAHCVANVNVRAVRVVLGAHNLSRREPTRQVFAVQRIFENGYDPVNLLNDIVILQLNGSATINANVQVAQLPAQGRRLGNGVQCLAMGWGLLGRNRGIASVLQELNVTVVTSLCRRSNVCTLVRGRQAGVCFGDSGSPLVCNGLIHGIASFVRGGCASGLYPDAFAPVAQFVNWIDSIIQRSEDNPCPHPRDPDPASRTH
Assay: Human neutrophil elastase inhibition assay (spectrofluorimetric, MeOSuc-AAPV-AMC substrate)

**Q.** `CC(C)(C)C(=O)Oc1ccc(S(=O)(=O)Nc2ccccc2C(=O)NCC(=O)O)cc1` [Sivelestat, sivelestat, reference compound] was tested. Which IC50 did it give?
**A.** 18.78 ± 0.13 nM
